# Results from patent publication US11179474B1, “Nanoparticle-based liver-targeting therapy and imaging” (priority 2015, dated 2021).
# Experiment: Solubility in aqueous systems
# Type: physicochemical
# Source text: For the functionalisation of the liver targeting nanoparticles two antineoplastic agents were chosen as chemotherapeutics: platinum-(IV)-succinate (Pt(IV)-suc) and doxorubicin. Both chemotherapeutics were coupled to the attachment linker via EDC*HCl/NHS promoted amide bound formation. […] Therefore, the nanoparticle solution was exchanged to DMSO either via lyophilisation or centrifuge concentration and subsequent dilution. Then, the EDC*HCl/NHS pre-activated succinate was reacted with the nanoparticles overnight. Final washings to remove remaining reagents provided an aqueous solution of liver targeting gold nanoparticles with platinum based chemotherapeutic pay-load (FIG. 3B). The Pt/Au ratio was determined by MPAES to 1/15. The covalent attachment of the drug to the nanoparticle was shown by ^1H NMR of the final construct after etching (FIG. 4B). The original signal of the amino methylene group with a chemical shift of 2.81 ppm virtually disappears, while a new multiplet of the succinic ethylene group at 2.47 ppm can observed in the spectrum. The integrals of the reporter signals were not changed indicating corona stability during on nanoparticle manipulations.
substance,measurement,value
platinum-(IV)-succinate,solubility in aqueous systems,not soluble in aqueous systems
